## Measured affinities in a library of Ab-91 heavy chain variants

The measurements come from Engelhart et al. 2022 (doi:10.1038/s41597-022-01779-4) through the FLAb antibody collection.

Binding partner: SARS-CoV-2 spike HR2 peptide, sequence PDVDLGDISGINAS.

Each scFv is VL, a 15-residue (Gly4Ser)3 linker, VH, as in the parent Ab-91, and differs from it in the CDRs of the heavy chain only.
VL: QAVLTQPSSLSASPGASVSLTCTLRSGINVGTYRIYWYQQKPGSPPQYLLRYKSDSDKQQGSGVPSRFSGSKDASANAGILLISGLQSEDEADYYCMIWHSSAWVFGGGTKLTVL
VH: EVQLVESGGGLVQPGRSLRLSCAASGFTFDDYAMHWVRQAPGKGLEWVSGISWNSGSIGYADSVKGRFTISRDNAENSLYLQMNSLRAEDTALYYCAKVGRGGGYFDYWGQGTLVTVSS

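The starting antibody came from a phage panning campaign against this peptide. In library AAYL51, one, two or three CDR residues were substituted; doubles and triples were drawn at random. In AlphaSeq, yeast of one mating type display the scFv and yeast of the other type display the target. After mating in shaken culture at 30 °C for 16 h, diploids were selected and their barcode pairs sequenced. Read counts were normalised to the haploid input and turned into Kd by a linear fit to BCL2-family pairs of known affinity, for each replicate. There are three technical replicates.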

The parent's heavy chain CDRs are GFTFDDYAMH, GISWNSGSIGYADSVK, VGRGGGYFDY; each variant's own CDRs replace them letter for letter. Values are apparent Kd, the geometric mean of the replicates that gave a signal; lower means stronger binding. A pair that was not seen in any replicate is written "no signal"; this usually means weak binding, but a binder can also be missed.

| CDR-H1 | CDR-H2 | CDR-H3 | Kd (apparent) | detected |
|---|---|---|---|---|
| GFTFDDYVMH | GISWNLGSIGYADSVK | VGRGGGYFDY | no signal | 0 of 3 |
| GFTFDDYAMH | GISWNSGSIGYADWVK | VGHGGGYCDY | 53 nM | 3 of 3 |
| GFTFDDYAMH | GISWNSGSIGFADSVK | MGRGGGYYDY | 58 µM | 2 of 3 |
| GFTFDDPKMH | GISWNSGSIVYADSVK | VGRGGGYFDY | no signal | 0 of 3 |
| GFMFDDYAMH | KISWNSGSIGYGDSVK | VGRGGGYFDY | 29 µM | 1 of 3 |
| GGTFDDYAMH | GISWNHGSTGYADSVK | VGRGGGYFDY | no signal | 0 of 3 |
| GFTFDDYAMH | GISWNSGSIGYIDSVF | VGRGGGYFDY | 2.8 µM | 2 of 3 |
| GFTFDDYKMH | GPSWNSGSIGNADSVK | VGRGGGYFDY | 360 µM | 1 of 3 |
| GMMFDVYAMH | GISWNSGSIGYADSVK | VGRGGGYFDY | 16 µM | 3 of 3 |
| GFTFDDYAMH | GISWNSGSIGYADVVI | VGRGGGYFDY | 18 µM | 1 of 3 |
| GGKFDDYAMH | GISWNSGSIGYADSVK | VGDGGGYFDY | 60 nM | 3 of 3 |
| GFTFDDYAMH | GSWWNSGSIGYADSVK | VGRGGGDFDY | 2.3 µM | 1 of 3 |
| GFTFDDRAMH | GISWNSGSIGYADSVK | VGRGGHYEDY | 40 µM | 1 of 3 |
| GFTFDDCAMH | GISWNAGSIGYADSVK | VGRGGKYFDY | 16 µM | 1 of 3 |
| WFTFDDYAMH | GISWNSGSIGYRDSVK | VGRGGVYFDY | no signal | 0 of 3 |
| GFTFDDYAMH | GISWHSGSIGYEDSVK | VCRGGGYFDY | 43 µM | 2 of 3 |
| GFTFKDYAMH | GISWNSCSIGYADSVK | VCRGGGYFDY | no signal | 0 of 3 |
| GFTGDDYAMH | GISWNHGSIGYADSVK | VGRGGAYFDY | 17 µM | 1 of 3 |
| GFGFDDYAMH | GISWNSGSIGFADSVK | VGRGQGYFDY | no signal | 0 of 3 |
| GFTFDDYEMH | WISWNSGSIGYADSVF | VGRGGGYFDY | 97 µM | 3 of 3 |
| GQTFDDYWMH | GISWNSGSWGYADSVK | VGRGGGYFDY | no signal | 0 of 3 |
| GFTFDDYAMH | GISWNSGSIGNADSVK | PGRGGGMFDY | 5.1 µM | 2 of 3 |
| GPTFDDYSMH | GISWNSGSIGYADSVK | VGRGGGYFDY | 280 nM | 3 of 3 |
| DFTFDDYAMH | GISWNSGSSGYADSVK | VGRGGGYFDY | 1.9 µM | 1 of 3 |
| GFTFDDYAMH | GISWNSGSIGYADSDK | FGRGGGYFDT | no signal | 0 of 3 |
| CFTFDDYAMH | GISDNSGSIGLADSVK | VGRGGGYFDY | no signal | 0 of 3 |
| GFTFDDYAMH | GISWNSHSIYGADSVK | VGRGGGYFDY | 7.7 µM | 1 of 3 |
| GFFFDDYAMH | GYSWNSGSIGYADSRK | VGRGGGYFDY | 110 µM | 1 of 3 |
| GNTFDDYAMH | GISWNSGGIGYADSVK | VGRGGGYFDY | no signal | 0 of 3 |
| GMTFDDYAMH | GISWNSGSIVYADSVK | VGRGGGYNDY | 220 µM | 1 of 3 |

Continued, with the values leading:

| Kd (apparent) | detected | CDR-H1 | CDR-H2 | CDR-H3 |
|---|---|---|---|---|
| no signal | 0 of 3 | GFTFDDYAMH | GIFWSSGSIGYADSVK | VGRGGGYFDY |
| 1.6 µM | 3 of 3 | GFSFDDYAMH | GISWNSGSIGTADSVK | VGYGGGYFDY |
| 55 µM | 2 of 3 | GFTFDDYAMH | GISWNSHSIGYADSVK | VGRDGGYADY |
| no signal | 0 of 3 | GFTHDDYAMH | GISWNSGSIGYADGVK | VGRGGGYFDH |
| no signal | 0 of 3 | GFTFDDWACH | GISWNSGSIGYADSVK | VGVGGGYFDY |
| no signal | 0 of 3 | GFTFDTYAMH | GIFWNSGSAGYADSVK | VGRGGGYFDY |
| 7.4 µM | 2 of 3 | GFTFDDYAMH | AISWNSGSIGYADSVK | VGENGGYFDY |
| no signal | 0 of 3 | GFTFDDYAMH | GISWNSGSIGYADKVK | VGRIGGYFDY |
| no signal | 0 of 3 | GFTFDDYVMH | VIMWNSGSIGYADSVK | VGRGGGYFDY |
| 8.1 µM | 1 of 3 | EFTFDDVAMH | GISWNSGSIGYADSVK | VGRGGGYCDY |
| no signal | 0 of 3 | GFTFDDYAMH | GISWNSGSIWYAQSVK | VGRGGHYFDY |
| no signal | 0 of 3 | GFTFDDYAMV | GISWNRFSIGYADSVK | VGRGGGYFDY |
| 56 µM | 1 of 3 | GFTFDDYAMH | GISWESGSIGYANSVK | WGRGGGYFDY |
| no signal | 0 of 3 | GRTFDDYAMH | GISWNSGSIGYEDSVK | VNRGGGYFDY |
| no signal | 0 of 3 | GFTFDDYAMH | GCSWNSNSIGKADSVK | VGRGGGYFDY |
| 73 µM | 3 of 3 | GFTFDDNAMH | GISWLSGSIGYSDSVK | VGRGGGYFDY |
| no signal | 0 of 3 | GFTFDDYVMH | GISWNSGSIGYADSVK | GPRGGGYFDY |
| 95 µM | 2 of 3 | GFTFDDYAMH | GISWNSGSIGYADSIK | VGRVGGYFYY |
| 110 µM | 3 of 3 | GFTFDDYAMH | YGSWNSGSIGYADSVK | VGRGRGYFDY |
| no signal | 0 of 3 | GTTFDDYAMH | GISWNSGSIGYADSVK | CGLGGGYFDY |
| no signal | 0 of 3 | GFTFDDYAMH | GISWNSNSIGYADSVK | HGRGGRYFDY |
| no signal | 0 of 3 | GFTFDDYAMH | GISWNSGSIGYADSMK | VGRGTGYFDY |
| no signal | 0 of 3 | GFTFDDYAMM | GISYNSGSIGDADSVK | VGRGGGYFDY |
| no signal | 0 of 3 | GFTFDDYAMH | CISWYSGSIGYADNVK | VGRGGGYFDY |
| 230 nM | 1 of 3 | GGTFDDYASH | GISWQSGSIGYADSVK | VGRGGGYFDY |
| no signal | 0 of 3 | GFTRDDYAMH | GISWNSGSIGYADSVK | VGRGGGKQDY |
| 220 µM | 2 of 3 | GFTFDDYAMH | GISWNPGSIGYAKSVK | VGRLGGYFDY |
| no signal | 0 of 3 | GFTFDDFAMH | MISWNSGSIGYAVSVK | VGRGGGYFDY |
| 8.2 µM | 2 of 3 | GFTFDDYAMH | GIAWNSFSIGFADSVK | VGRGGGYFDY |
| no signal | 0 of 3 | GFTFDRYAMH | GISMNSGSIGYADSVH | VGRGGGYFDY |
| 2.1 mM | 1 of 3 | GKTADDYAMH | GISWNSGSIGYADSVK | VIRGGGYFDY |

Extract of 4 entries:

CDR-H1	CDR-H2	CDR-H3	Kd (apparent)	detected
GFTFDDYAMH	GISWNSGSIGNADSVK	PGRGGGMFDY	5.1 µM	2 of 3
GFTFDDYAMH	GISWNSGSIGYADSMK	VGRGTGYFDY	no signal	0 of 3
GFTFDDYAMH	GISWHSGSIGYEDSVK	VCRGGGYFDY	43 µM	2 of 3
GFTFKDYAMH	GISWNSCSIGYADSVK	VCRGGGYFDY	no signal	0 of 3

As a blank, each scFv also met three strains without target: over library AAYL51, 21% of these pairings were detected, typically at 34 µM and seldom below 1.8 µM. Parent in this assay: reference entry 72 nM, copy in this library 7.5 nM.